Measured affinities in a library of Ab-95 light chain variants

Binding partner: SARS-CoV-2 spike HR2 peptide, sequence PDVDLGDISGINAS.

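The starting antibody came from a phage panning campaign against this peptide. Variants in AAYL52 differ from the parent at up to three CDR positions; double and triple changes were sampled at random. Affinity was read by AlphaSeq, a pooled yeast mating assay with surface-displayed partners. Pairs that bind mate more often; barcode pairs of the diploids are counted by sequencing. A regression on co-assayed BCL2-family reference pairs converts the normalised counts of each replicate to an apparent Kd. There are three technical replicates.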

The variants keep the heavy chain, the linker and the frameworks of Ab-95 (scFv order VH, the linker GGGGSGGGGSGGGGS, VL).
VH: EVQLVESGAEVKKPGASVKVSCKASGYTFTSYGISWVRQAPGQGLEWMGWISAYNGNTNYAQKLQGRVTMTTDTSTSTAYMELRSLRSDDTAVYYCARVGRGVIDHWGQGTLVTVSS
VL: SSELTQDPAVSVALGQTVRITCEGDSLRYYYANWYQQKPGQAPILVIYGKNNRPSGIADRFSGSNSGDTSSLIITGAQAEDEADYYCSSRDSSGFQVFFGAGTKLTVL

Changes read parent residue, position, new residue, counted from the first residue of the VL shown. This list gathers variants with a substitution at S26 (VL, numbered from residue 1). Numbers give log10(Kd / nM), so 0 is 1 nM and 3 is 1 µM. Smaller is tighter. Averages over replicates are reported, and they cover detected replicates only. "nd" marks a missing value. The strain was present, yet no cells mated with the target were sequenced in any replicate, which points to weak or no binding. Order: sorted from the lowest average up, undetected variants last. Empty control strains, which show no peptide, gave a signal in 28% of pairings with library AAYL52; the median was 3.91 and 95% of these signals were weaker than 2.90. No background was subtracted. Also given: how often the same scFv was detected with the empty control strains.

Variant S26W+Y30Q+G94F showed 1.16 (3 of 3 replicates; controls 5 of 9). With S26N+Y30P+A32K the result was 1.52 (3 of 3 replicates; controls 4 of 9). Variant D25P+S26G gave 2.08 (3 of 3 replicates; controls 5 of 9). Variant S26M+Y29E+A32T gave 2.27 (3 of 3 replicates; controls 5 of 9). Variant S26C+S92F gave 2.30 (3 of 3 replicates; controls 4 of 9). Variant S26E+Y30H+F95G showed 2.45 (3 of 3 replicates; controls 2 of 9). With S26P+Y29T+N52L the result was 2.46 (3 of 3 replicates; controls 2 of 9). For S26A+S93N, the assay gave 2.49 (3 of 3 replicates; controls 2 of 9). With S26T+Y29A the result was 2.50 (3 of 3 replicates; controls 6 of 9).

With G24H+S26N+N52T the result was 2.51 (3 of 3 replicates; controls 1 of 9). For S26Y+Y30V+S55H, the assay gave 2.52 (3 of 3 replicates; controls 2 of 9). For E23R+S26I+G94V, the assay gave 2.70 (2 of 3 replicates; controls 6 of 9). With E23W+S26H+S92R the result was 2.85 (3 of 3 replicates; controls 1 of 9). With G24P+S26Y+L27W the result was 2.94 (3 of 3 replicates; controls 4 of 9). Variant S26T+F95E gave 2.97 (3 of 3 replicates; controls 4 of 9). Variant S26W+S92T+S93Q gave 3.07 (2 of 3 replicates; controls 5 of 9). With S26H+P54H+G94S the result was 3.09 (2 of 3 replicates; controls 1 of 9). Variant S26D+S89D showed 3.15 (3 of 3 replicates; controls 5 of 9).

Variant S26A+D91G+Q96F gave 3.23 (3 of 3 replicates; controls 2 of 9). Variant S26V+S92F+V97G gave 3.26 (2 of 3 replicates; controls 1 of 9). With S26H+R28A+K50F the result was 3.27 (3 of 3 replicates; controls 4 of 9). Variant D25C+S26C+S55N gave 3.33 (2 of 3 replicates; controls 4 of 9). Variant D25M+S26Q+Y30I showed 3.38 (2 of 3 replicates; controls 2 of 9). For S26Q, the assay gave 3.49 (3 of 3 replicates; controls 4 of 9). Variant G24P+S26Y+G49E gave 3.50 (3 of 3 replicates; controls 2 of 9). For S26M+P54G+R90P, the assay gave 3.55 (2 of 3 replicates; controls 4 of 9). Variant S26W+Y29W+Q96A showed 3.57 (2 of 3 replicates; controls 5 of 9).

Variant S26W+S88P+S89V showed 3.58 (2 of 3 replicates; controls 4 of 9). For S26F+R53P+F95H, the assay gave 3.71 (1 of 3 replicates; controls 1 of 9). For S26L+Y31K+S55E, the assay gave 3.71 (1 of 3 replicates; controls 4 of 9). With S26D+S93Y+Q96A the result was 3.81 (3 of 3 replicates; controls 4 of 9). Variant S26R+P54E+S92E gave 3.81 (2 of 3 replicates; controls 2 of 9). Variant G24W+S26M gave 3.82 (1 of 3 replicates; controls 2 of 9). Variant S26P+G49I+G94L showed 3.84 (1 of 3 replicates; controls 1 of 9). With S26Q+K50Y+D91T the result was 3.90 (1 of 3 replicates; controls 2 of 9). Variant G24M+S26A+F98R gave 4.00 (3 of 3 replicates; controls 3 of 9).

With S26V+Y29P+S88N the result was 4.05 (3 of 3 replicates; controls 1 of 9). With D25V+S26P+N33W the result was 4.12 (2 of 3 replicates; controls 5 of 9). For S26W+R28W+S55L, the assay gave 4.20 (1 of 3 replicates; controls 2 of 9). Variant S26Y+S92L+Q96D showed 4.25 (2 of 3 replicates; controls 2 of 9). Variant D25V+S26T+R90F gave 4.32 (2 of 3 replicates; controls 5 of 9). Variant S26F+A32D+D91V showed 4.45 (1 of 3 replicates; controls 4 of 9). For S26Q+Y31T+D91R, the assay gave 4.69 (1 of 3 replicates; controls 2 of 9). Variant S26Y+N52P+F95E showed 4.85 (2 of 3 replicates; controls 3 of 9). With S26F+A32I+F98I the result was 4.85 (1 of 3 replicates; controls 2 of 9).

Variant E23Q+S26K+S55Y showed 4.93 (1 of 3 replicates; controls 1 of 9). Variant S26I+R53Y+V97H showed nd (0 of 3 replicates; controls 0 of 9). With S26H+S89N+G94F the result was nd (0 of 3 replicates; controls 0 of 9). For S26Y+R53G+Q96P, the assay gave nd (0 of 3 replicates; controls 2 of 9). Variant S26R+R53N+R90G showed nd (0 of 3 replicates; controls 2 of 9).

Data: MIT Lincoln Laboratory AlphaSeq set, Engelhart et al. 2022, doi:10.1038/s41597-022-01779-4, as distributed in FLAb.